Patent publication US20260053731A1, “MICRONEEDLE PARTICLES FOR ENHANCED TOPICAL TRANSDERMAL DRUG DELIVERY” (BONSENS AB, priority 2023, published 2026)

Assay: Ex vivo assessment of skin permeability post MNP application (fluorescent dyes)
Conditions: for improvement of measured fluorescence of the dermis by MNP treatment vs negative control: dye 10 μM in glycerol applied topically
Experimental: The skin tissues were placed on the top of 6 cm cell culture dishes filled to the top with 1×PBS with the dermis layer facing downwards and being submerged in PBS, while the epidermis facing upwards for being available to our treatment. Skin, which was stored, refrigerated, or frozen was put in PBS prior to letting it rehydrate at 4° C. for approximately 6 h. […] The set up was carefully monitored throughout the experiment and reagents were carefully added in case of evaporation. Samples were taken out in 30 min and 6 h after the addition of the dyes to evaluate permeability. The skin samples were then washed thoroughly with PBS, dried on dry napkins, and were subjected to cryo-sectioning. The skin sections were then visualized by using Zeiss AXIO Scope A1 Microscope with Axiocam 105 color (Munich, Germany) and quantified with ImageJ v1.53.

In the case of “Fluorescein isothiocyanate (FITC)-dextran [FITC-dextran]”, the “improvement of measured fluorescence of the dermis by MNP treatment vs negative control” value (30 min) is reported as about 10 ×, the “improvement of measured fluorescence of the dermis by MNP treatment vs negative control” value (6 h) is reported as about 7 × and the “improvement of skin permeability after MNP treatment” value (over a 6 h experimental time) is reported as 7 fold.
